This is an account of results in US20210009630A1, “CYCLIC DINUCLEOTIDES AS STING AGONISTS” (Janssen Biotech, Inc., priority 2017, published 2021).

By UniProt entry, the sequences of proteins in these tests, tags left out. Residues count along the entry.
UniProt Q86WV6, 139-379 H232R limits assumed: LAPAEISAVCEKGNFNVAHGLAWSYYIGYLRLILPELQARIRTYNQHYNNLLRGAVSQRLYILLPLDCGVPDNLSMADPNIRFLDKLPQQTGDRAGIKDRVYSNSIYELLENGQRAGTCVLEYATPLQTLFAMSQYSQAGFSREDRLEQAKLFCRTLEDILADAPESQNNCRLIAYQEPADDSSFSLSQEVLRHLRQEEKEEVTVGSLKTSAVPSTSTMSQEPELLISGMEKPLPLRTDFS

Assay [1] addresses human STING (biotinylated STING protein, residues 139-379 of Q86WV6, H232R) (Homo sapiens, UniProt Q86WV6, H232R). Put plainly: STING SPA binding assay. The following applies: read-out: hSTING SPA IC50; displacement of [3H]-2′3′-cGAMP from biotin-STING; means of at least three values; tested form: Na salt. In general terms: In a radioligand displacement assay an active substance lowers the binding of a labelled ligand.

Assay [2] concerns human STING pathway (THP1-ISG cells). Put plainly: STING human cell reporter assay. The following applies: read-out: human cell reporter EC50, IRF-inducible SEAP reporter, 24 h, means of at least three values, tested form: Na salt. The protocol:
Agonism of the human STING pathway is assessed in THP1-ISG cells (Invivogen, cat #thp-isg) derived from human THP1 monocyte cell line by stable integration of an interferon regulatory factor (IRF)-inducible SEAP reporter construct. THP1-Blue ISG cells express a secreted embryonic alkaline phosphatase (SEAP) reporter gene under the control of an ISG54 minimal promoter in conjunction with five interferon (IFN)-stimulated response elements. As a result, THP1-Blue ISG cells allow the monitoring of IRF activation by determining the activity of SEAP. The levels of IRF-induced SEAP in the cell culture supernatant are readily assessed with alkaline phosphatase detection medium, a SEAP detection reagent. These cells are resistant to Zeocin. 2′3′cGAMP was used as a positive control in this assay. To run the assay, 60,000 cells were dispensed in 30 μL/well of a white, opaque bottom tissue culture treated 384-well plate.
Test compounds were added in a volume of 10 μL (1% DMSO final concentration). Compounds are initially prepared in 100% DMSO, spotted on an compound dilution plate and then diluted in media prior to transfer. The assay was incubated for 24 h at 37° C., 5% CO2 then plates were centrifuged at 1200 rpm (120×g) for 5 min. After final incubation, 90 μL of alkaline phosphatase detection medium-substrate was added to each well of a new 384-well clear plate and 10 μL of the cell supernatant was transferred from the assay plate to the new alkaline phosphatase detection medium-plate using a Biomek FX and mixed 4 times. Plates were incubated at RT for 20 min then absorbance at 655 nm was determined on the Tecan Safire2.
On the technique in general: A reporter such as luciferase makes a cellular process visible.

For assay [3], the system named is THP1-Blue ISG cells (IFN-β secretion). Briefly: Human interferon-β induction assay. Conditions: total cumulative IFN-β induction over the dose range tested (0.78 to 50 uM) in THP-1 cells after a 24 hour exposure; tested form: Na salt. As for the experimental part:
THP1-Blue ISG cells are used to measure the secretion of IFN-β into the culture supernatant following STING pathway activation. To run the assay, anti-IFN-β capture antibodies were coated on […] well MultiArray plates (Mesoscale Discovery). After a one hour incubation, plates were washed and 50 μL supernatant from the STING human cell reporter assay plates or IFN-β standards were mixed with 20 μL Sulfotag-conjugated detection antibody in the coated plates. Plates were incubated, shaking for 2 h, washed, and read buffer was applied. Electrochemiluminescence was measured on the SectorImager.

Each structure is given as a SMILES string.

Usually IC50 stands for the midpoint of a concentration-inhibition curve. Broadly, the EC50 is the concentration giving half of the maximal effect.

For `Nc1ncnc2c1ncn2[C@@H]1O[C@@H]2CNS(=O)(=O)O[C@@H]3[C@H](F)[C@@H](COP(=O)(O)O[C@H]2[C@H]1F)O[C@H]3n1cnc2c(N)ncnc21`, the IC50 in assay [1] came to 4.26 µM. The EC50 in assay [2] amounted to 0.025 µM.
`Nc1nc2c(ncn2[C@@H]2O[C@@H]3COP(=O)(O)O[C@H]4[C@H](F)[C@H](n5cnc6c(N)ncnc65)O[C@@H]4CNS(=O)(=O)O[C@@H]2[C@@H]3F)c(=O)[nH]1`: the “human IFN-β (ranking value)” value in assay [3] is 16254 pg/mL. In addition, the IC50 in assay [1] is 0.29 µM. In addition, in assay [2], the EC50 is 0.053 µM.
In the case of `Nc1nc2c(nnn2[C@@H]2O[C@@H]3COP(=O)(O)O[C@H]4[C@H](F)[C@H](n5cnc6c(N)ncnc65)O[C@@H]4CNS(=O)(=O)O[C@@H]2C3)c(=O)[nH]1`, the half-inhibitory concentration (IC50) in assay [1] amounted to 76.2 µM. In addition, the EC50 in assay [2] is 1.84 µM.
Consider `Nc1nc2c(ncn2[C@@H]2O[C@@H]3COP(=O)(O)O[C@H]4[C@@H](F)[C@H](n5cnc6c(N)ncnc65)O[C@@H]4CNS(=O)(=O)O[C@@H]2C3)c(=O)[nH]1`, for which the IC50 in assay [1] amounted to 0.39 µM. In assay [2], the EC50 worked out at 0.17 µM.
`CO[C@H]1[C@H]2NS(=O)(=O)OC[C@H]3O[C@@H](n4cnc5c(=O)[nH]cnc54)[C@H](F)[C@@H]3OP(=O)(O)OC[C@H]1O[C@H]2n1cnc2c(=O)[nH]c(N)nc21`: the “human IFN-β (ranking value)” value in assay [3] amounted to 18191 pg/mL. In addition, the IC50 in assay [1] was 0.32 µM.
Take `CO[C@H]1[C@H]2OS(=O)(=O)NC[C@H]3C[C@@H](n4ccc5c(N)ncnc54)[C@H](O)[C@@H]3OP(=O)(O)OC[C@H]1O[C@H]2n1cnc2c(=O)[nH]c(N)nc21`: the “human IFN-β (ranking value)” value in assay [3] is 5539 pg/mL. Moreover, the IC50 in assay [1] is 11.7 µM. Besides, the EC50 in assay [2] was 2.38 µM.
`Nc1ncnc2c1ncn2[C@@H]1O[C@@H]2CNS(=O)(=O)O[C@@H]3[C@H](O)[C@@H](COP(=O)(O)O[C@H]2[C@H]1F)O[C@H]3n1cnc2cncnc21`: the IC50 in assay [1] amounted to 37.1 µM. In addition, the concentration giving a half-maximal response (EC50) in assay [2] is 0.26 µM.
Turning to `Nc1ncnc2c1ncn2[C@@H]1O[C@@H]2CNS(=O)(=O)O[C@@H]3[C@H](O)[C@@H](COP(=O)(O)O[C@H]2[C@H]1F)O[C@H]3c1cnc2c(N)ncnn12`, the IC50 in assay [1] was over 100 µM. Besides, the EC50 in assay [2] turned out to be 6.66 µM.
